# Measured affinities in a library of Ab-14 light chain variants

From the AlphaSeq antibody data of Li et al. 2023 (doi:10.1038/s41467-023-39022-2), copy in the FLAb collection.

Target: peptide PDVDLGDISGINAS, taken from heptad repeat 2 (HR2) of SARS-CoV-2 spike.

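The starting antibody came from a phage panning campaign against this peptide. These sequences belong to a second round, designed from the earlier measurements on random variants of the parent. Several design methods are mixed in this list. The assay is AlphaSeq: two haploid yeast populations carry antibody and antigen on their surface. Binding brings cells together so that they mate, and sequencing counts the barcode pairs among the diploids. Scores were corrected for input abundance and mapped to Kd with protein pairs of known affinity run in the same pool. Mating was done six times.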

Parent scFv Ab-14: VH joined to VL by a (GGGGS)3 linker. Changes lie in the light chain CDRs alone.
VH: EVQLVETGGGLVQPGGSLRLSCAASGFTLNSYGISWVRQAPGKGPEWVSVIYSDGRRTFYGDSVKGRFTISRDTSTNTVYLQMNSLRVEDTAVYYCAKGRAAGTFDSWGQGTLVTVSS
VL: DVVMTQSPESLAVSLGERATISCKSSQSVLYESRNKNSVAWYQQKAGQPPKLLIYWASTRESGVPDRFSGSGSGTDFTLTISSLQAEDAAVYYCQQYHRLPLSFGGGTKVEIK

Positions count from residue 1 of the parent VL; S26G puts G in place of S. Variants here have at most six changes. Values are apparent Kd, the geometric mean of the replicates that gave a signal; lower means stronger binding. An entry "nd" has no value in the source: the pair was not observed among the diploids in any replicate. This suggests poor binding but is not conclusive. The authors averaged sequences with at least three values out of six and counted those with two or fewer as poor binders. Of ten entries with the parent sequence, four were seen in most replicates (averages 2.2 nM to 240 nM), three in one and three in none, so single entries are noisy. As a blank, each scFv also met three strains without target: over all light chain designs, 4% of these pairings were detected, typically at 430 nM and seldom below 38 nM. A sequence measured in both rounds can read differently, since the two assays cover different ranges.

The variant S26G+S28G+L30P+W56G+T59Q+E61W gave 10 nM (6 of 6 replicates). The variant S25L+V29W+L30W+W56N gave 3.3 nM (6 of 6 replicates). With S25L+V29Y+S33Q+W56N the result was 660 pM (6 of 6 replicates). For S25L+S26Y+Q27G+V29Q+W56N, the assay gave 2.0 nM (6 of 6 replicates). The variant S25V+V29E+S33D+W56N+T59Q showed 1.7 nM (6 of 6 replicates). The variant S25V+S26Q+V29E+W56N gave 5.0 nM (6 of 6 replicates).

With S25L+V29W+L30G+W56G the result was 1.1 nM (6 of 6 replicates). For S25L+S26L+W56N+S62D+R99Q, the assay gave 2.2 nM (6 of 6 replicates). The variant S25F+W56R+P101H+L102N showed 350 nM (2 of 6 replicates). With K24L+S26H+L30Y+W56E+Y97I the result was 170 nM (3 of 6 replicates). The variant W56R+P101G gave 1.4 µM (5 of 6 replicates). For S25L+L30E+W56Q, the assay gave 1.2 nM (6 of 6 replicates).

The variant S26P+E32Q+S33T+N37H+W56H+S62N showed 8.9 nM (6 of 6 replicates). The variant S25L+V29M+W56N+E61L gave 770 pM (6 of 6 replicates). The variant R34D+W56G+H98Y showed 1.2 nM (6 of 6 replicates). For W56H+R60C+Y97T+L100D, the assay gave nd (0 of 6 replicates). The variant Y31D+S103I showed 12 nM (6 of 6 replicates). The variant V29C+S33Y+Q95G showed nd (0 of 6 replicates).

The variant Q27I+V29Y+W56E+T59I showed 850 pM (6 of 6 replicates). The variant S25L+Q27I+V29Y+W56A showed nd (0 of 6 replicates). For S25L+W56N+S62D+S103M, the assay gave 390 pM (6 of 6 replicates). The variant S26I+N35M showed 20 nM (6 of 6 replicates). With K24H+S25P+Q27P+W56N the result was 670 pM (6 of 6 replicates). The variant S25L+V29E+K36S+W56N showed 570 pM (6 of 6 replicates).

The variant S25L+V29E+W56N+T59Q+S62Q gave 470 pM (6 of 6 replicates). The variant S25V+S26P+Q27F+W56Q+S62K showed 2.8 nM (6 of 6 replicates). The variant S25Q+L30D+W56M gave 13 nM (6 of 6 replicates). The variant S25V+S26P+V29H+K36M+W56N+T59E gave 2.8 nM (6 of 6 replicates). The variant S33M+K36N+R99S showed 190 nM (2 of 6 replicates). For S25L+V29D+W56G+S62V, the assay gave 1.9 nM (6 of 6 replicates).

With L30D+Y31D+W56D the result was 410 pM (6 of 6 replicates). The variant V29F+A40D+W56G+Q96E+L100G+P101T showed 33 nM (1 of 6 replicates). The variant S25L+V29F+W56D+E61C showed 930 pM (6 of 6 replicates).

Repeated from above, the 5 best binders with a signal in all replicates:

{"changes": "S25L+W56N+S62D+S103M", "Kd": "390 pM", "replicates with signal": "6/6"}
{"changes": "L30D+Y31D+W56D", "Kd": "410 pM", "replicates with signal": "6/6"}
{"changes": "S25L+V29E+W56N+T59Q+S62Q", "Kd": "470 pM", "replicates with signal": "6/6"}
{"changes": "S25L+V29E+K36S+W56N", "Kd": "570 pM", "replicates with signal": "6/6"}
{"changes": "S25L+V29Y+S33Q+W56N", "Kd": "660 pM", "replicates with signal": "6/6"}